Measured values as given in US20180273626A1.

Target: IgE-Fc3-4:FcεRIα complex (human) (UniProt P12319)
Assay: SPR

omalizumab
Kd: 0.311 nM
